Membrane permeability of cyclic peptides

Data: CycPeptMPDB; original report Furukawa et al. 2016, doi:10.1021/acs.jmedchem.6b01246.

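The data file gives no further conditions (lipid, pH, time, direction or concentration), and values from different papers need not be comparable. Other peptides of the study may be missing here. Entries at the database's floor value (log10 P of -10) are not listed.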

PAMPA measures passive passage through an artificial lipid membrane.
Values are log10 P with P in cm/s, so -5 is more permeable than -7.
A structure that stands twice has two entries in the source.

| structure (SMILES) | PAMPA (log10 cm/s) |
|---|---|
| CCCCCN1CC(=O)N(C)[C@H](CC(C)C)C(=O)N[C@@H](CCCC)C(=O)N2CCC[C@H]2C(=O)N(CC)CC(=O)N[C@@H](C)C1=O | -5.30 |
| CCCC[C@@H]1NC(=O)[C@@H](CC(C)C)N(C)C(=O)CN(CC2CCCCC2)C(=O)[C@H](Cc2ccccc2)NC(=O)CN(Cc2ccc3c(c2)OCO3)C(=O)[C@H]2CCCN2C1=O | -7.17 |
| CCCC[C@@H]1NC(=O)[C@H](CC(C)C)N(C)C(=O)CN(CC2CCCCC2)C(=O)[C@@H](C)NC(=O)CN(CCCOC(C)C)C(=O)[C@@H]2CCCN2C1=O | -4.97 |
| CCCC[C@@H]1NC(=O)[C@@H](CC(C)C)N(C)C(=O)CN(CC2CCOCC2)C(=O)[C@H](C)NC(=O)CN(CC)C(=O)[C@@H]2CCCN2C1=O | -6.93 |
| CCCC[C@@H]1NC(=O)[C@@H](CC(C)C)NC(=O)CN(CC2CCOCC2)C(=O)[C@@H](C)NC(=O)CN(CCCOC(C)C)C(=O)[C@H]2CCCN2C1=O | -6.60 |
| CCCCCN1CC(=O)N[C@@H](CC(C)C)C(=O)N[C@@H](CCCC)C(=O)N2CCC[C@@H]2C(=O)N(Cc2ccc3c(c2)OCO3)CC(=O)N[C@@H](C)C1=O | -5.32 |
| CCCC[C@@H]1NC(=O)[C@H](CC(C)C)N(C)C(=O)CN(CC2CCOCC2)C(=O)[C@H](Cc2ccccc2)NC(=O)CN(CCCOC(C)C)C(=O)[C@H]2CCCN2C1=O | -5.00 |
| CCCC[C@@H]1NC(=O)[C@H](CC(C)C)N(C)C(=O)CN(CC2CCOCC2)C(=O)[C@@H](C)NC(=O)CN(CCCOC(C)C)C(=O)[C@@H]2CCCN2C1=O | -7.04 |
| CCCCCN1CC(=O)N[C@@H](CC(C)C)C(=O)N[C@@H](CCCC)C(=O)N2CCC[C@H]2C(=O)N(CC)CC(=O)N[C@H](C)C1=O | -6.48 |
| CCCCCN1CC(=O)N[C@@H](CC(C)C)C(=O)N[C@@H](CCCC)C(=O)N2CCC[C@H]2C(=O)N(Cc2ccc3c(c2)OCO3)CC(=O)N[C@@H](Cc2ccccc2)C1=O | -5.09 |
| CCCC[C@@H]1NC(=O)[C@H](CC(C)C)N(C)C(=O)CN(CC2CCOCC2)C(=O)[C@H](Cc2ccccc2)NC(=O)CN(CCCOC(C)C)C(=O)[C@H]2CCCN2C1=O | -5.11 |
| CCCC[C@@H]1NC(=O)[C@@H](CC(C)C)NC(=O)CN(CC2CCCCC2)C(=O)[C@H](C)NC(=O)CN(CC)C(=O)[C@H]2CCCN2C1=O | -5.58 |
| CCCC[C@@H]1NC(=O)[C@@H](CC(C)C)NC(=O)CN(CC2CCCCC2)C(=O)[C@H](Cc2ccccc2)NC(=O)CN(CC)C(=O)[C@@H]2CCCN2C1=O | -4.96 |
| CCCCCN1CC(=O)N(C)[C@@H](CC(C)C)C(=O)N[C@@H](CCCC)C(=O)N2CCC[C@H]2C(=O)N(Cc2ccc3c(c2)OCO3)CC(=O)N[C@@H](C)C1=O | -4.89 |

Excerpt, the final 2 entries:

structure (SMILES)	PAMPA (log10 cm/s)
CCCC[C@@H]1NC(=O)[C@@H](CC(C)C)NC(=O)CN(CC2CCCCC2)C(=O)[C@H](Cc2ccccc2)NC(=O)CN(CC)C(=O)[C@@H]2CCCN2C1=O	-4.96
CCCCCN1CC(=O)N(C)[C@@H](CC(C)C)C(=O)N[C@@H](CCCC)C(=O)N2CCC[C@H]2C(=O)N(Cc2ccc3c(c2)OCO3)CC(=O)N[C@@H](C)C1=O	-4.89